The values below come from patent publication US4647687A, “Halogenated sulphides, process for their preparation and their use in microbicidal agents” (Bayer Aktiengesellschaft, priority 1983, dated 1987).

In brackets after ≈: the same amount, converted by molar mass.

The subject of test [1] is mixed culture of green algae, blue algae, brown algae and diatoms. The experiment in a line: Algae-destroying concentration in Allen's nutrient solution. As to conditions: decolorization of nutrient solution after 2 weeks' algae growth.
The next test has as its system Aureobasidium pullulans. The experiment in a line: MIC against fungi, beerwort/peptone agar. As to conditions: 28° C., 60 to 70% relative humidity, 2 weeks.
In the next test the test system is Trichoderma viride. The experiment in a line: MIC against fungi, beerwort/peptone agar. As to conditions: 28° C., 60 to 70% relative humidity, 2 weeks.
In a further test the test system is Coniophora puteana. The experiment in a line: MIC against fungi, beerwort/peptone agar. As to conditions: 28° C., 60 to 70% relative humidity, 2 weeks.
A further test relates to Lentinus tigrinus. Nature of the test: MIC against fungi, beerwort/peptone agar. As to conditions: 28° C., 60 to 70% relative humidity, 2 weeks.
The next test has as its system Polyporus versicolor. The experiment in a line: MIC against fungi, beerwort/peptone agar. As to conditions: 28° C., 60 to 70% relative humidity, 2 weeks.
The subject of another test is Chaetomium globosum. The experiment in a line: MIC against fungi, beerwort/peptone agar. As to conditions: 28° C., 60 to 70% relative humidity, 2 weeks.
A further test relates to slime organisms. The experiment in a line: Action against slime organisms (MIC in Allen's nutrient solution). In kind it is cell-based. As to conditions: about 10^6 germs/ml, 3 weeks at room temperature.

On to `N#CC(Cl)=C(Cl)SCC(Cl)(Cl)C#N`, for which the “Destroying concentration (algae-destroying)” value in test [1] came to 25 mg/L. In addition, the minimum inhibitory concentration (MIC) against Aureobasidium pullulans stood at 5 µg/mL (≈ 18.1 µM); in the test on Trichoderma viride, 50 µg/mL (≈ 181 µM); against Coniophora puteana it was 0.5 µg/mL (≈ 1.81 µM); against Lentinus tigrinus, 2 µg/mL (≈ 7.25 µM); against Polyporus versicolor it was 5 µg/mL (≈ 18.1 µM); in the test with Chaetomium globosum it was 10 µg/mL (≈ 36.2 µM). This compound registered a minimum inhibitory concentration (MIC) with slime organisms of 0.35 µg/mL (≈ 1.27 µM).
Take `N#CC=C(Cl)SCC(Cl)(Cl)C#N`: the “Destroying concentration (algae-destroying)” value in test [1] is 25 mg/L. Further, the MIC with Aureobasidium pullulans was determined as 10 µg/mL (≈ 41.4 µM); against Trichoderma viride, 100 µg/mL (≈ 414 µM); against Coniophora puteana it was 1 µg/mL (≈ 4.14 µM); in the test with Lentinus tigrinus it was 5 µg/mL (≈ 20.7 µM); in the test with Polyporus versicolor, 10 µg/mL (≈ 41.4 µM); against Chaetomium globosum, 15 µg/mL (≈ 62.1 µM). Moreover, in the test on slime organisms, the minimum inhibitory concentration (MIC) came out at 0.35 µg/mL (≈ 1.45 µM).
